Test results taken from article PMC6919601, “Identification of Plasmodium dipeptidyl aminopeptidase allosteric inhibitors by high throughput screening” (PLoS ONE, 2019).

Chains of the proteins cited; added tags and fusions are not shown.
UniProt Q8I1Y2, entry or part of it: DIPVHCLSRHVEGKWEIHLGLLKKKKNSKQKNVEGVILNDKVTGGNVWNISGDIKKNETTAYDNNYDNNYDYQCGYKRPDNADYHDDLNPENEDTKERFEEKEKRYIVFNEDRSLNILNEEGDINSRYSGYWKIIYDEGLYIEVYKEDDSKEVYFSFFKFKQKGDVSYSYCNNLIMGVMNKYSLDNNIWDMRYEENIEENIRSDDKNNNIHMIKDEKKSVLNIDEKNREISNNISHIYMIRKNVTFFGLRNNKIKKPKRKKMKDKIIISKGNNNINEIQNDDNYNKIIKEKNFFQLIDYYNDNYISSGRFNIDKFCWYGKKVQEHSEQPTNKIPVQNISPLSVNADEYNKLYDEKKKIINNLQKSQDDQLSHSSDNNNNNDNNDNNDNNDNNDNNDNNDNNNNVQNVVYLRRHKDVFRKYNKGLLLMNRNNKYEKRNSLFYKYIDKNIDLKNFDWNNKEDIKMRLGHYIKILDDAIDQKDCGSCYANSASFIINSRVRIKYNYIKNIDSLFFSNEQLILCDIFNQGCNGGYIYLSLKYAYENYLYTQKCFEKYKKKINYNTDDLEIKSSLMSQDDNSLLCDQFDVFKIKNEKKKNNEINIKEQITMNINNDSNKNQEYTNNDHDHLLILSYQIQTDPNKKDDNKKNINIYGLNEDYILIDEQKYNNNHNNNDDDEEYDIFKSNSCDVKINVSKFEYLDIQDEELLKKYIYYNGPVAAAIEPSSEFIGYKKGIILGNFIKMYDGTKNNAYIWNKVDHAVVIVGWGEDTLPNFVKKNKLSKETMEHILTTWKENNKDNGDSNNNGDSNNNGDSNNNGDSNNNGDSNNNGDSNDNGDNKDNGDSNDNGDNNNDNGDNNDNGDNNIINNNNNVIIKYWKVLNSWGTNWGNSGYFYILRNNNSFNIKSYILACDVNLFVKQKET

What was measured:
DPAP3 [1] = target: T1, DPAP3 (Plasmodium falciparum, UniProt Q8I1Y2); experiment: biochemical
DPAP3 [2] = target: T1, DPAP3
CatC = target: CatC; design: method as in PMID 31177613; details: covalent inhibitor; cited from earlier work

| SMILES | IC50 (DPAP3 [1]) [µM] | also measured |
| --- | --- | --- |
| Cc1nc(SCC(=O)O)c(C#N)c(C)c1C [SMDC39848, Cc1nc(SCC(=O)O)c(C#N)c(C)c1C] | ~100 | – |
| CCN(C(=O)c1ccco1)c1nc(-c2ccccc2)cs1 [SMDC168314, CCN(C(=O)c1occc1)c2nc(cs2)c3ccccc3] | ~100 | – |
| N#CC1=C2SCN(Cc3ccco3)CN2C(=O)CC1c1cccc(OCc2ccccc2)c1 (stereo not shown) [SMDC170136, O=C1CC(C(=C2SCN(Cc3occc3)CN12)C#N)c4cccc(OCc5ccccc5)c4] | 0.9 | – |
| Cn1c(S)nc2c(=O)oc3ccccc3c21 [SMDC168313, Cn1c(S)nc2C(=O)Oc3ccccc3c12] | – | IC50 DPAP3 (DPAP3 [2]): N.I. |
| COc1cc(/C=C2/NC(=O)N(Cc3ccccc3F)C2=O)cc(Br)c1O [SMDC103222, COc1cc(\C=C/2\NC(=O)N(Cc3ccccc3F)C2=O)cc(Br)c1O] | ~50 | – |
| NC(=O)c1c(NC(=O)COc2ccc(Cl)cc2)sc2c1CCCCC2 [SMDC106958, NC(=O)c1c2CCCCCc2sc1NC(=O)COc3ccc(Cl)cc3] | ~100 | – |
| Cc1ccc(NC(=O)CN2C(=O)S/C(=C\c3ccccc3O)C2=O)cc1 [SMDC112370, Cc1ccc(NC(=O)CN2C(=O)S\C(=C/c3ccccc3O)\C2=O)cc1] | 31 | – |
| COc1cccc(C2CC(=O)N3CN(CCc4sccc4C)CSC3=C2C#N)c1 (stereo not shown) [SMDC178790, COc1cccc(c1)C2CC(=O)N3CN(CCc4sccc4C)CSC3=C2C#N] | 0.4 | – |
| N#CC1=C2SCN(C3CCCCC3)CN2C(=O)CC1c1cccc2ccccc12 (stereo not shown) [SMDC170156, O=C1CC(C(=C2SCN(CN12)C3CCCCC3)C#N)c4cccc5ccccc45] | 0.9 | – |
| CSc1nc(S)c2c3c(sc2n1)CCC3 [SMDC153437A, CSC1=NC(S)=C2C3=C(CCC3)SC2=N1] | 25 | – |
| CC(Oc1cccc(Cl)c1)C(=O)Nc1sc2c(c1C(N)=O)CCCCC2 (stereo not shown) [SMDC106517, CC(Oc1cccc(Cl)c1)C(=O)Nc2sc3CCCCCc3c2C(=O)N] | 21 | – |
| CCOc1ccc(C2CC(=O)N3CN(C(C)c4ccccc4)CSC3=C2C#N)cc1 (stereo not shown) [SMDC178822, CCOc1ccc(cc1)C2CC(=O)N3CN(CSC3=C2C#N)C(C)c4ccccc4] | 0.16 | – |
| Cn1cc(Br)c(C(=O)Nc2sc3c(c2C(N)=O)CCCCC3)n1 [SMDC111619, Cn1cc(Br)c(n1)C(=O)Nc2sc3CCCCCc3c2C(=O)N] | – | IC50 DPAP3 (DPAP3 [2]): N.I. |
| Cc1ccsc1CCN1CSC2=C(C#N)C(c3ccc(Cl)cc3)CC(=O)N2C1 (stereo not shown) [SMDC178801, Cc1ccsc1CCN2CSC3=C(C#N)C(CC(=O)N3C2)c4ccc(Cl)cc4] | 0.23 | – |
| CCc1nccn1C(=O)c1cnn2c(C(F)F)cc(-c3ccccc3)nc12 [SMDC158691, CCc1nccn1C(=O)c2cnn3c(cc(nc23)c4ccccc4)C(F)F] | – | IC50 DPAP3 (DPAP3 [2]): N.I. |
| CCC[C@H](N)C(=O)N[C@H](/C=C/S(=O)(=O)c1ccccc1)CCc1ccccc1 [JCP410] | – | ki/Ki for CatC (CatC): 5.8e+06 M⁻¹ s⁻¹ |
